Earlier results as cited in patent publication US10736889B2, “Method of treating dyskinesia” (Rutgers, The State University of New Jersey, priority 2011, dated 2020).

Amino acid sequences for entries named in this document (tags omitted). A change or cut given only in a name is not applied to a line headed by its entry.
UniProt P41145: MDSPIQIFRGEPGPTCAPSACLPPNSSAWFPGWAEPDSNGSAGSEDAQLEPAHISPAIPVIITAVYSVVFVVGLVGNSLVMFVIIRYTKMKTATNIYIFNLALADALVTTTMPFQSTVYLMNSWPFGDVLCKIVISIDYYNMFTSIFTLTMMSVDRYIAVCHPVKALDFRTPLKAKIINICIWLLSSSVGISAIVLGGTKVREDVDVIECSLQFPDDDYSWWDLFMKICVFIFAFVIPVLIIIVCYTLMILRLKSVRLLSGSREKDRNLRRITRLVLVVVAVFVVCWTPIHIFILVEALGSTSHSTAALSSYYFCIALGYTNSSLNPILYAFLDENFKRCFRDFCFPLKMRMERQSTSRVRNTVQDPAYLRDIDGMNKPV

Target: κ-opioid receptors (Homo sapiens, UniProt P41145)

C=C1CC[C@@]2(O)[C@H]3Cc4ccc(O)c5c4[C@@]2(CCN3CC2CC2)[C@H]1O5 [Nalmefene]
Ki: ~83 pM
